Here are results for one compound from ChEMBL document CHEMBL3396955, “Discovery of non-electrophilic capsaicinoid-type TRPA1 ligands” (Bioorg Med Chem Lett, 2015).

Chains of the proteins cited; added tags and fusions are not shown.
UniProt Q6RI86, whole entry: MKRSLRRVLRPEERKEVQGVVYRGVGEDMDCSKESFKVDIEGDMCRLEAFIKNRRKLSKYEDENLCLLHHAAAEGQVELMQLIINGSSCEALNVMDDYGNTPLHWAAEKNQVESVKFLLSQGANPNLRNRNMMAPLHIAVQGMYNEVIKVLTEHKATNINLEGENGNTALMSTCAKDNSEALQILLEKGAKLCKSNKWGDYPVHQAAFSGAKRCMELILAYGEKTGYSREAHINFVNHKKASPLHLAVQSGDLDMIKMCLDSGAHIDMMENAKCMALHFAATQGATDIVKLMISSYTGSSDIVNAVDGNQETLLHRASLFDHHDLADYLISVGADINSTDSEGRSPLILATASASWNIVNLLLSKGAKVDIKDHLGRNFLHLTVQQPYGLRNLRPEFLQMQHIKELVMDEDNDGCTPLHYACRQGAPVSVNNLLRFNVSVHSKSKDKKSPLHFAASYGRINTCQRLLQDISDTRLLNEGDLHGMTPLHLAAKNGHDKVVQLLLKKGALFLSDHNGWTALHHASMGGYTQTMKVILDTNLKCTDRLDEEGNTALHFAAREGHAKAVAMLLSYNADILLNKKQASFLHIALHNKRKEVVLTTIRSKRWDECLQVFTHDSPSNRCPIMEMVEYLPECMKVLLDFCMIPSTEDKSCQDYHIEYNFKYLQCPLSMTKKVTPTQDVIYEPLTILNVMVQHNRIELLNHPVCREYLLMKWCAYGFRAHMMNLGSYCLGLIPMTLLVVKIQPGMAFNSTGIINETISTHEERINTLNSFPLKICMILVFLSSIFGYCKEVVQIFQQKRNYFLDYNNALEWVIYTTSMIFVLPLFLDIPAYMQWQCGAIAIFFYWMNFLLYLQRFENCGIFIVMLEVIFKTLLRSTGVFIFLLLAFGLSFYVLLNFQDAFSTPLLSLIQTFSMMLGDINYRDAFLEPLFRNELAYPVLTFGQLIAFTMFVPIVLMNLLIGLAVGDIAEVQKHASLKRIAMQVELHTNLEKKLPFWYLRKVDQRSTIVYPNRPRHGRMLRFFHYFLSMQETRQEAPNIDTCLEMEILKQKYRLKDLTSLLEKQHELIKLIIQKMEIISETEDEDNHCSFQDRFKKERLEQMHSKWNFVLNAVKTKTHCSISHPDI

In general, pEC50 refers to the negative decadic logarithm of the EC50, by convention in mol/L. As a reminder, the pIC50 is the IC50 on a negative log10 scale, so that one unit is a factor of ten.

Assay [1] concerns the target T1, Transient receptor potential cation channel subfamily A member 1 (Rattus norvegicus, UniProt Q6RI86). Description: Agonist activity at rat recombinant TRPA1 expressed in HEK293 cells assessed as Ca2+ influx by Fluo-4 dye based assay. It counts as cell-based.
In assay [2] the target is T1, Transient receptor potential cation channel subfamily A member 1. Description: Antagonist activity against rat recombinant TRPA1 expressed in HEK293 cells assessed as inhibition of AITC-induced Ca2+ influx pre-treated 5 mins before capsaicin addition by Fluo-4 dye based assay. It counts as cell-based.

pEC50, pIC50: −log10 of the molar value.

`C=CCN=C=S` [ALLYL ISOTHIOCYANATE]: the pEC50 in assay [1] was 5.70. The pIC50 in assay [2] is 4.07.
